Test results published in PubChem BioAssay AID504332 (National Center for Advancing Translational Sciences (NCATS), 2011).
Several values for one entry are separate records, joined by “and”; a condition that tells them apart may be missing. Where a call stands in place of a potency, no number is given. Identical values can stand only once. Only a part is listed here, and it is no random draw. Inconclusive results are not listed. Activity calls are given as the source filed them. Calls come from the whole dose curve; as a rule, active = well fitted inhibition curve with a large enough effect; inconclusive = small, poorly fitted or top-dose-only effect; inactive = no such curve, though single readings can be large or run the other way.

Chains of the proteins cited; added tags and fusions are not shown. Lines headed by an entry give the natural chain unless they say otherwise; changes in a name come on top.
UniProt Q96KQ7: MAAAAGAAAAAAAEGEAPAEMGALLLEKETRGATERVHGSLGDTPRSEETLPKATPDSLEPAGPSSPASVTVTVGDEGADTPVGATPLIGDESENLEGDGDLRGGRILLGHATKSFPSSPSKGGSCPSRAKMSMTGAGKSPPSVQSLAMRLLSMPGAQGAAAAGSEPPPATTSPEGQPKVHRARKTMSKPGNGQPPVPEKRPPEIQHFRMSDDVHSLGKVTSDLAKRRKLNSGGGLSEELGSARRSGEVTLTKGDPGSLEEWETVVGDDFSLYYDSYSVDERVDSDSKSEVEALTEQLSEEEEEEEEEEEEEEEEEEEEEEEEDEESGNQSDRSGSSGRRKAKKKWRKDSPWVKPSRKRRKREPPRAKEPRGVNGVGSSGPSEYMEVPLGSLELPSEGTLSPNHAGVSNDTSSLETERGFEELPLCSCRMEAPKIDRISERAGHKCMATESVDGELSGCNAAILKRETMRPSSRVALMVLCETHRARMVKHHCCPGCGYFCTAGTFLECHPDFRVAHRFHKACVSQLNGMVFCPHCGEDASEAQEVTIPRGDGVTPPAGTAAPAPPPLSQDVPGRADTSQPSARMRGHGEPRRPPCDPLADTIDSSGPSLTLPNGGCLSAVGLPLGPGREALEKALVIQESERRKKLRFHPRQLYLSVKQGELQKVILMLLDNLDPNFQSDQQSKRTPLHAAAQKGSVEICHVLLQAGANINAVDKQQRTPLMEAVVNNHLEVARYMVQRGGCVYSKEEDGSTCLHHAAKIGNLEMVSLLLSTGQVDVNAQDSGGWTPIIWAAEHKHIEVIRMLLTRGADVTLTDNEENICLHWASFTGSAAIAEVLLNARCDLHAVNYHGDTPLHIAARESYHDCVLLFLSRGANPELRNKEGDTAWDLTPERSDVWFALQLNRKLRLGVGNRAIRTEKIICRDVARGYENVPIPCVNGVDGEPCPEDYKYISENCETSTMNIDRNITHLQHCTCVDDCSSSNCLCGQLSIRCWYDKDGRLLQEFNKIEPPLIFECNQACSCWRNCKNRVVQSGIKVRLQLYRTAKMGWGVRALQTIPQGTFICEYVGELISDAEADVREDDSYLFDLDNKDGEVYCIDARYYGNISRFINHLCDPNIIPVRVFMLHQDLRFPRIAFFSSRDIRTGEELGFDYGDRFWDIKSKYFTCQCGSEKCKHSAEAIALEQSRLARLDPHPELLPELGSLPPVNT

Molecular target: Histone-lysine N-methyltransferase EHMT2 (Homo sapiens) (UniProt Q96KQ7)
Test: qHTS Assay for Inhibitors of Histone Lysine Methyltransferase G9a; note: nearly all actives have a fitted effect of over 75% in size
Conditions: G9a H3K9 monomethylation, AlphaScreen, 2 h; series mostly up to 102 µM
Potency is the fitted concentration of half-maximal effect.

Question: With O=P(Nc1nccs1)(c1ccccc1)c1nc2ccccc2s1 (stereo unspecified) as the molecule, how does the Potency read?
Answer: The Potency was active: 1.26 µM.

Question: For O=P(Nc1nccs1)(Oc1ccccc1)Oc1ccccc1, which Potency is on record?
Answer: Its Potency is “inactive”.

Question: With CCOP1(=S)c2c(C)nn(CCC#N)c2N=C(c2ccccc2F)N1C (stereo unspecified) as the molecule, how does the activity, negative = inhibition read?
Answer: Its activity, negative = inhibition is inactive: -5.87% [at 12.7 µM].

Question: How did the Potency turn out when O=C(O)COc1ccc([As](=O)(O)O)cc1[N+](=O)[O-] was run?
Answer: The Potency was “inactive”.

Question: How did the Potency turn out when Nc1ccccc1[As](=O)(O)c1ccccc1 was run?
Answer: The Potency was “inactive”.

Question: Which Potency does the source give for NC(=O)Nc1ccc([As](=O)(O)O)cc1 here?
Answer: The Potency was “inactive”.

Question: How did the Potency turn out when CCOP1(=S)c2c(C)nn(CCC#N)c2N=C(c2ccc(F)cc2)N1C (stereo unspecified) was run?
Answer: Its Potency is active: 10 µM.

Question: For CN(C(=O)Cc1ccccc1)[C@@H]1CC[C@]2(CCCO2)C[C@H]1N1CCCC1, which Potency is on record?
Answer: Its Potency is “inactive”.

Question: For N#CCCN(C(=O)COC(=O)C(O)(c1ccccc1)c1ccccc1)c1ccc(F)cc1, which Potency is on record?
Answer: Its Potency is “inactive”.

Question: With CS(=O)(=O)c1ccc(Cl)c(NC(=O)COC(=O)C(O)(c2ccccc2)c2ccccc2)c1 as the molecule, how does the Potency read?
Answer: Its Potency is “inactive”.

Question: COc1cc(C(=O)NCC2(N3CCOCC3)CCCCC2)cc(Cl)c1OC(C)C was tested. Which Potency did it give?
Answer: Its Potency is “inactive”.

Question: O=[As](O)(O)c1cccnc1 was tested. Which Potency did it give?
Answer: Its Potency is active: 39.8 µM.

Question: For CN(C(=O)Cc1ccc(Cl)c(Cl)c1)[C@@H]1CC[C@]2(CCCO2)C[C@H]1N1CCCC1, which Potency is on record?
Answer: The Potency was “inactive”.

Question: Which Potency does the source give for O=[As](O)(c1cccc(O)c1)c1cccc(O)c1 here?
Answer: The Potency was “inactive”.

Question: How did the Potency turn out when Cc1cccc(OCC(=O)OC2CN3CCC2CC3)c1 (stereo unspecified) was run?
Answer: Its Potency is “inactive”.

Question: With CCCOP(=S)(Nc1nc(N)cc(=O)[nH]1)OCCC as the molecule, how does the Potency read?
Answer: Its Potency is “inactive”.

Question: Which Potency does the source give for Cc1ccc(NCCc2c([N+](=O)[O-])cc([N+](=O)[O-])cc2[N+](=O)[O-])cc1 here?
Answer: Its Potency is active: 11.2 µM.

Question: With CCOP(=O)(Nc1cccc2ccccc12)OCC as the molecule, how does the Potency read?
Answer: The Potency was “inactive”.

Question: How did the Potency turn out when COc1cc(C2NCCC3(OCCO3)C2(C)C)cc(OC)c1OC (stereo unspecified) was run?
Answer: The Potency was “inactive”.

Question: CN(CCCl)Cc1cc(Cl)c(NC2=NCCN2)c(Cl)c1 was tested. Which Potency did it give?
Answer: The Potency was active: 39.8 µM and active: 9.47 µM.

Question: With CCOP(=O)(Nc1ccc(C)cn1)OCC as the molecule, how does the Potency read?
Answer: Its Potency is “inactive”.

Question: How did the Potency turn out when CCOP(=O)(NC(=NC(C)c1ccccc1)NC(C)c1ccccc1)OCC (stereo unspecified) was run?
Answer: Its Potency is “inactive”.

Question: Which activity, negative = inhibition does the source give for CCC1=CC2Cc3nc4ccc(Cl)cc4c(N)c3C(C1)C2 (stereo unspecified) here?
Answer: The activity, negative = inhibition was inactive: -10.9% [at 0.501 µM].

Question: How did the activity, negative = inhibition turn out when O=P1(Nc2ccccn2)COc2ccccc2OC1 was run?
Answer: Its activity, negative = inhibition is inactive: -23.9% [at 12.7 µM].

Question: Which Potency does the source give for CC(C)(C)C(=O)NC(Sc1ncccn1)C(Cl)(Cl)Cl (stereo unspecified) here?
Answer: The Potency was active: 50.1 µM.

Question: How did the Potency turn out when Clc1n[nH]nc1-c1nn[nH][15n]1 was run?
Answer: Its Potency is active: 22.4 µM.

Question: Which Potency does the source give for COc1ccccc1CNC(=O)COC(=O)C(O)(c1ccccc1)c1ccccc1 here?
Answer: Its Potency is “inactive”.

Question: For O=[As](O)(c1ccccc1Br)c1ccccc1Br, which Potency is on record?
Answer: The Potency was “inactive”.

Question: With CC(C)/C=N\N=C(\N)N[N+](=O)[O-] as the molecule, how does the Potency read?
Answer: The Potency was “inactive”.

Question: Which Potency does the source give for CC1CCC(C(C)C)C(OP(=O)(Nc2ccccn2)c2ccccc2)C1 (stereo unspecified) here?
Answer: Its Potency is active: 39.8 µM.

Question: How did the activity, negative = inhibition turn out when Cc1nn(-c2ccccc2)c2c1P(=O)(N1CCOCC1)N(C)C(c1ccccc1)=N2 (stereo unspecified) was run?
Answer: Its activity, negative = inhibition is inactive: -4.18% [at 12.7 µM].

Question: O=C(/C=C/c1ccccc1)OC1CN2CCC1CC2 (stereo unspecified) was tested. Which Potency did it give?
Answer: The Potency was active: 56.2 µM.

Question: NS(=O)(=O)c1cccc(NC(=O)COC(=O)C(O)(c2ccccc2)c2ccccc2)c1 was tested. Which activity, negative = inhibition did it give?
Answer: The activity, negative = inhibition was inactive: -9.19% [at 12.7 µM].

Question: How did the activity, negative = inhibition turn out when O=P1(Nc2ccc(Br)cn2)COc2ccccc2OC1 was run?
Answer: Its activity, negative = inhibition is inactive: -42.9% [at 12.7 µM].

Question: O=[As](O)(c1cccs1)c1cccs1 was tested. Which activity, negative = inhibition did it give?
Answer: The activity, negative = inhibition was inactive: 21.1% [at 0.501 µM].

Question: For Nc1cccc([As](=O)(O)c2ccccc2)c1, which Potency is on record?
Answer: The Potency was “inactive”.

Question: For CCOC(=O)Nc1ccc([As](=O)(O)O)c(O)c1, which Potency is on record?
Answer: Its Potency is “inactive”.

Question: How did the Potency turn out when CCCCOc1ccc(C(=O)NCC2(N3CCCCC3)CCCCC2)cc1OC was run?
Answer: Its Potency is “inactive”.

Question: For CCOC(=O)Nc1cccc([As](=O)(O)O)c1, which activity, negative = inhibition is on record?
Answer: The activity, negative = inhibition was inactive: -0.328% [at 2.33 µM].

Question: Cc1cc(SC(NC=O)C(Cl)(Cl)Cl)ncn1 (stereo unspecified) was tested. Which Potency did it give?
Answer: The Potency was active: 3.55 µM.

Question: How did the activity, negative = inhibition turn out when COP1(=S)c2c(C)nn(CCC#N)c2N=C(c2ccc(F)cc2)N1C (stereo unspecified) was run?
Answer: The activity, negative = inhibition was inactive: 5.03% [at 12.7 µM].

Question: For O=C(Nc1ccncc1[N+](=O)[O-])c1ccc([N+](=O)[O-])cc1[N+](=O)[O-], which Potency is on record?
Answer: Its Potency is “inactive”.

Question: Which activity, negative = inhibition does the source give for O=C(COc1ccccc1)OC1CN2CCC1CC2 (stereo unspecified) here?
Answer: Its activity, negative = inhibition is inactive: -47% [at 12.7 µM].

Question: For CCOC(=O)c1ccc(NC(=O)C(C)(CCl)SC)cc1 (stereo unspecified), which Potency is on record?
Answer: Its Potency is active: 50.1 µM.

Question: How did the Potency turn out when O=C(OC1CN2CCC1CC2)c1cccc([N+](=O)[O-])c1 (stereo unspecified) was run?
Answer: The Potency was “inactive”.

Question: Which Potency does the source give for CCC(C)N(CC(C)C)C(=S)SC(NC(C)=O)C(Cl)(Cl)Cl (stereo unspecified) here?
Answer: Its Potency is active: 22.4 µM.

Question: Which Potency does the source give for O=C(OC1CN2CCC1CC2)C12CC3CC(CC(C3)C1)C2 (stereo unspecified) here?
Answer: Its Potency is active: 56.2 µM.

Question: With Cc1c2c(nc3ccccc13)SC(C(Cl)Cl)C2 (stereo unspecified) as the molecule, how does the Potency read?
Answer: Its Potency is “inactive”.

Question: With COc1ccc2nc(NP(=O)(c3ccccc3)c3ccccc3)sc2c1 as the molecule, how does the Potency read?
Answer: Its Potency is “inactive”.

Question: COc1ccc(N/C(=N/P(=O)(N2CCOCC2)N2CCOCC2)N2CCOCC2)cc1 was tested. Which Potency did it give?
Answer: Its Potency is “inactive”.

Question: Which activity, negative = inhibition does the source give for COc1cc(C(=O)NCC2(N3CCOCC3)CCCCC2)ccc1OCC(C)C here?
Answer: Its activity, negative = inhibition is inactive: 11.2% [at 12.7 µM].

Question: How did the activity, negative = inhibition turn out when C[As](=O)(O)c1cccc(C(=O)O)c1 was run?
Answer: The activity, negative = inhibition was inactive: -5.57% [at 2.33 µM].

Question: How did the Potency turn out when Cc1ccc2nc3c(c(C)c2c1)CC(C(Cl)Cl)S3 (stereo unspecified) was run?
Answer: The Potency was “inactive”.

Question: For Cc1ccc(OP(=O)(Nc2ccc([N+](=O)[O-])cn2)Oc2ccc(C)cc2)cc1, which Potency is on record?
Answer: The Potency was active: 28.2 µM.

Question: CC(C)c1ccc(OP(=O)(Nc2ccccn2)Oc2ccccc2F)cc1 (stereo unspecified) was tested. Which Potency did it give?
Answer: Its Potency is “inactive”.

Question: With O=[N+]([O-])c1cc([N+](=O)[O-])c(-c2ccn[nH]2)s1 as the molecule, how does the Potency read?
Answer: The Potency was active: 50.1 µM.

Question: With CC(C)NC(=O)NP(=O)(Oc1ccccc1)Oc1ccccc1 as the molecule, how does the activity, negative = inhibition read?
Answer: Its activity, negative = inhibition is inactive: -7.38% [at 0.0925 µM].

Question: With O=C(O)c1ccccc1[As](=O)(O)O as the molecule, how does the Potency read?
Answer: Its Potency is “inactive”.

Question: How did the activity, negative = inhibition turn out when CC(=O)Nc1ccc([As](=O)(O)O)cc1 was run?
Answer: Its activity, negative = inhibition is inactive: -13.7% [at 2.33 µM].

Question: Which Potency does the source give for Cc1ccc(NP(=O)(Oc2ccccc2F)Oc2ccccc2F)nc1 here?
Answer: Its Potency is “inactive”.

Question: For CCOP(=O)(Nc1ccccc1)OCC, which Potency is on record?
Answer: Its Potency is “inactive”.

Question: Cc1cc(SC(NC(=O)c2ccc(F)cc2)C(Cl)(Cl)Cl)ncn1 (stereo unspecified) was tested. Which Potency did it give?
Answer: The Potency was active: 2.51 µM.

Question: O=[N+]([O-])c1cc([N+](=O)[O-])c(CCN2CCOCC2)c([N+](=O)[O-])c1 was tested. Which activity, negative = inhibition did it give?
Answer: The activity, negative = inhibition was inactive: 8.19% [at 2.33 µM].

Question: CCN(N=Nc1nonc1N)c1nonc1N was tested. Which Potency did it give?
Answer: Its Potency is “inactive”.

Question: NC(=O)c1cc([N+](=O)[O-])cc([N+](=O)[O-])c1N was tested. Which Potency did it give?
Answer: The Potency was “inactive”.

Question: Which Potency does the source give for Cc1ccc(N/C(=N/P(=O)(N2CCOCC2)N2CCOCC2)N2CCOCC2)cc1 here?
Answer: The Potency was “inactive”.
